Source: ChEMBL document CHEMBL1138974 (Bioorg Med Chem Lett, 2006)

Columns and labels:
Mu-type opioid receptor = Mu-type opioid receptor (Homo sapiens, UniProt P35372); assay: Displacement of [3H]naloxone from human mu opioid receptor expressed in BHK cells
Nociceptin receptor = Nociceptin receptor (Homo sapiens, UniProt P41146); assay: Displacement of [3H]NOP from human NOP receptors expressed in HEK293 cells; assay type: cell-based

In the case of `O=C1NCN(c2ccccc2)C12CCN(C1CCCCC1(O)c1ccccc1)CC2` (configuration not stated), the IC50 (Mu-type opioid receptor) is reported as 2.7 µM and the IC50 (Nociceptin receptor) is reported as 15 µM.
